Results taken from patent US20070202163A1 (priority 2005, published 2007).

Settings: rabbits, mean ± SD
Experimental: Sublingual tablets or IM doses were administered using a Randomized Crossover study design over 5-consecutive weeks.
Animals were evaluated for viability once-daily throughout the study. Cageside clinical observations were performed twice-daily from the initiation of dosing until the end of treatment. Body weights were obtained upon receipt, on Study Day 1 and weekly thereafter.
Blood samples (approximately 1 mL/time point) were obtained from an indwelling arterial catheter placed approximately 30-minutes prior to initiation of sample collection. Samples were collected immediately prior to dosing (pre-dose baseline) and at approximately 5, 10, 15, 20, 30, 40, 60, 90, 120, and 180 minutes after dosing. At later time points, the samples were obtained by direct needle puncture or by removing the catheter and allowing blood to flow directly from the animal's ear artery into the blood collection tube.
Immediately after collection, the tube was inverted several times to disperse the anticoagulant and then placed on ice until centrifugation. The blood samples were centrifuged (˜2000×g for 10 minutes at 8° C.) within approximately 15-30 minutes of collection to separate the cellular and plasma fractions. The plasma fraction was harvested into screw-capped tubes and stored at approximately −70° C. (±10° C.) until analyzed. […] The remaining red blood cell fraction was discarded. […]
A freshly prepared standard curve was analyzed along with samples on each day of analysis. […] Calibrator concentrations were 0.5, 1, 2, 4, 8, 12, 16 and 20 ng/mL as determined in the validation study. […]
Elimination half-life (T½), maximum concentration (Cmax), time of maximum concentration (Tmax), area under the plasma concentration-time curve from time 0 through the final timepoint (AUC0-t), and area under the plasma concentration-time curve from time 0 extrapolated to infinity (AUC0-∞) were calculated for this study. […] The elimination rate constant, lambda z (λz), was determined by WinNonlin using the best fit method.

## CNC[C@H](O)c1ccc(O)c(O)c1 [Epinephrine]
0.3 mg IM
  Tmax2: 30.0 ± 7.1 min
15 mg sublingual tablet
  Tmax2: 43.3 ± 27.3 min
60 mg sublingual (2x30 mg tablets)
  Tmax2: 66.0 ± 39.1 min

Like-named read-outs stand apart in the source and are kept apart here.
